Data published in ChEMBL document CHEMBL1126087, “(E)-1,3-dialkyl-7-methyl-8-(3,4,5-trimethoxystyryl)xanthines: potent and selective adenosine A2 antagonists” (J Med Chem, 1992).

Protein sequences, listed by entry. Tags and fused reporters are not part of them.
UniProt P25099, whole entry: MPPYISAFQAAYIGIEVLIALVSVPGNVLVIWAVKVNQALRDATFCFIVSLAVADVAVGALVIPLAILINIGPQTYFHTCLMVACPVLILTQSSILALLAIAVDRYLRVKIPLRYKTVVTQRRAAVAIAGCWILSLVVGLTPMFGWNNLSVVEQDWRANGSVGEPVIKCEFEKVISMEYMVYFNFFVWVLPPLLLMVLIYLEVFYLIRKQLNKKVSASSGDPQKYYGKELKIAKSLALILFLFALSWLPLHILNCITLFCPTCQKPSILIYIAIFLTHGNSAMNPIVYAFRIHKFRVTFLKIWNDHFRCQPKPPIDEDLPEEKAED

Target: Adenosine receptor A1 (Rattus norvegicus, UniProt P25099)

Ki: 0.035 µM
SMILES: CCCn1c(=O)c2nc(/C=C/c3ccccc3)[nH]c2n(CCC)c1=O
